The target of the assay is T1, A2A receptor in rat striatum (Rattus norvegicus, UniProt P30543).
T1 construct: the A2A receptor in rat striatum; from tissue; host or cells: rat striatum
Kind of assay: Radioligand binding, displacement of [3H]ZM241385 from rat striatal membranes.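 Also: displacement assays run in the absence of GTP.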 As to conditions: [3H]ZM241385, rat striatal membranes, ligand 10^−5 M.

The chains behind the UniProt entries cited, without tags or fusion partners. Where a name states a change or a piece, a line headed by the entry shows the natural chain unless it says otherwise.
UniProt P30543, whole entry: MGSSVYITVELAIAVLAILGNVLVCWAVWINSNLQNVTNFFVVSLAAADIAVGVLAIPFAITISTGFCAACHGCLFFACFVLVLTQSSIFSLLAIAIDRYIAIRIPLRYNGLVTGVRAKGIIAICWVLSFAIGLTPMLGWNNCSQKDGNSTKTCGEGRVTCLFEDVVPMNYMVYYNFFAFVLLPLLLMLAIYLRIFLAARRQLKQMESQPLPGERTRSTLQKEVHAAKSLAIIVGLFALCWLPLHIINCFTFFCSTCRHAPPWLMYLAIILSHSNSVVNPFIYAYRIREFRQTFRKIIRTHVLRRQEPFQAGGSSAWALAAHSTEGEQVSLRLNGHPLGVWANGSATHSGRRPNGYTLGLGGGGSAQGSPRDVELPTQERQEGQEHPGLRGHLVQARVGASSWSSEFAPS

Molecules are shown by their SMILES.

Take `CNC(=O)[C@H]1O[C@@H](n2cnc3c(NCc4cccc(I)c4)ncnc32)[C@H](O)[C@@H]1O` [IB MECA, reference compound]: the “% displacement at 10^−5 M A2A” value amounted to 39.4%.

Values taken from US7084127B2, “C2,5′-disubstituted and N6, C2,5′-trisubstituted adenosine derivatives and their different uses” (Universiteit Leiden, priority 2001, dated 2006).
